These results are taken from ChEMBL document CHEMBL6127148, “Discovery of l-Lysine Dioxalate (LH1513) as a Novel Inhibitor of Calcium Oxalate Crystallization for Hyperoxaluria” (ACS Med Chem Lett, 2024).

Assay [1] has as its system Calcium oxalate. The assay can be described thus: Potency index, ratio of citrate EC50 to test compound EC50 for inhibition of calcium oxalate crystallization in supersaturated solution of CaOx containing of 250 uM of CaCl2 and 250 uM of Na2C2O4 incubated for 72 hrs at pH 6.8 HEPES buffer by fluorescence-based assay.
The subject of assay [2] is Calcium oxalate. Put plainly: Potency index, ratio of citrate EC50 to test compound EC50 for inhibition of calcium oxalate crystallization in supersaturated solution of CaOx containing of 1 mM of CaCl2 and 250 uM of Na2C2O4 incubated for 72 hrs at pH 6.8 HEPES buffer by spectrophotometric method.
Assay [3] relates to Calcium oxalate. Put plainly: Potency index, ratio of pyruvate EC50 to test compound EC50 for inhibition of calcium oxalate crystallization in supersaturated solution of CaOx containing of 250 uM of CaCl2 and 250 uM of Na2C2O4 incubated for 72 hrs at pH 6.8 HEPES buffer by fluorescence-based assay.
The subject of assay [4] is Calcium oxalate. The assay can be described thus: Inhibition of calcium oxalate crystallization in COM (010) face assessed as inhibition of growth on the (021) steps by measuring fold increase at EC50 concentration incubated for 20 min by atomic force microscopic analysis relative to citrate.
The subject of assay [5] is Calcium oxalate. Put plainly: Selectivity ratio of EC50 for inhibition of calcium oxalate crystallization in supersaturated solution of CaOx containing of 1 mM of CaCl2 and 250 uM of Na2C2O4 to inhibition of calcium oxalate crystallization in supersaturated solution of CaOx containing of 250 uM of CaCl2 and 250 uM of Na2C2O4.
The test system of assay [6] is Calcium oxalate. The assay can be described thus: Potency index, ratio of pyruvate EC50 to test compound EC50 for inhibition of calcium oxalate crystallization in supersaturated solution of CaOx containing of 1 mM of CaCl2 and 250 uM of Na2C2O4 incubated for 72 hrs at pH 6.8 HEPES buffer by spectrophotometric method.

Consider `NCCNC(=O)C(=O)O`, for which the Ratio EC50 with Calcium oxalate [1] was determined as 22.

For the compound `O=C(O)C(=O)NCCNC(=O)C(=O)O`, the Ratio EC50 with Calcium oxalate [1] came to 66.

With `CC(=O)C(=O)O` [PYRUVATE SODIUM], the Ratio EC50 in the assay with Calcium oxalate [2] came to 1.7; in the assay with Calcium oxalate [1], 25.

Turning to `O=C([O-])C(=O)NCCCC[C@H](NC(=O)C(=O)[O-])C(=O)[O-].[Na+].[Na+].[Na+]`, the Ratio EC50 stood at 4.5 in the assay on Calcium oxalate [3]; 3 in the assay on Calcium oxalate [5]; 10 with Calcium oxalate [2]; 6 with Calcium oxalate [6]; 115 in the assay with Calcium oxalate [1]. Moreover, the fold change (FC) in the assay with Calcium oxalate [4] amounted to 3.
